Reference: patent publication US8865706B2, “Heteroaryl-substituted hexahydropyrano[3,4-d][1,3]thiazin-2-amine compounds” (Pfizer Inc., priority 2013, dated 2014)

Sequences of proteins named here, by UniProt entry; tags and fusion partners are left off. Residues count along the entry.
UniProt P56817, 46-457: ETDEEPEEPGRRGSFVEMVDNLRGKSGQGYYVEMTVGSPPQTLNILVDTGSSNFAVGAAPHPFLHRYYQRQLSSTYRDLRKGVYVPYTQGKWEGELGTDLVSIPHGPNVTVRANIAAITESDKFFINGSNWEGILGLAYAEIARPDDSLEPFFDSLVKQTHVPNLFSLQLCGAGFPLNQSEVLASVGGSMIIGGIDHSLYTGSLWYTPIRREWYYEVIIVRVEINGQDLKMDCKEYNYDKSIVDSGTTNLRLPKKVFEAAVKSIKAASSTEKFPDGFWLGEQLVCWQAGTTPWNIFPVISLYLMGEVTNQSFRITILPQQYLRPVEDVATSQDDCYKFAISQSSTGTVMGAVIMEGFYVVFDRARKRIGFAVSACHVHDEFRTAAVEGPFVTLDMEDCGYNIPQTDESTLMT

Target: BACE1 enzyme (Homo sapiens (Human), UniProt P56817)
Experiment: BACE1 Cell-Free Assay (fluorescence polarization, cleavage of synthetic APP substrate)
Type: biochemical
Conditions: average of 2 determinations; values marked b: geometric mean of 3-9 determinations
Excerpt: This assay measures the inhibition of the beta-secretase enzyme as it cleaves a non-native peptide.
A synthetic APP substrate that can be cleaved by beta-secretase having N-terminal biotin and made fluorescent by the covalent attachment of Oregon Green at the Cys residue is used to assay beta-secretase activity in the presence or absence of the inhibitory compounds. […] The BACE1 enzyme is affinity purified material from conditioned media of CHO-K1 cells that have been transfected with a soluble BACE construct (BACE1deltaTM96His). Compounds are incubated in a ½ log dose response curve from a top concentration of 100 μM with BACE1 enzyme and the biotinylated fluorescent peptide in 384-well black plates (Thermo Scientific #4318). BACE1 is at a final concentration of 0.1 nM with a final concentration of peptide substrate of 150 nM in a reaction volume of 30 μL assay buffer [100 mM sodium acetate, pH 4.5 (brought to pH with acetic acid), and 0.001% Tween-20]. Plates are covered and incubated for 3 hours at 37° C. […] After a 10 minute incubation at room temperature, plates are read on a PerkinElmer EnVision for fluorescence polarization (Ex485 nm/Em530 nm). The activity of the beta-secretase enzyme is detected by changes in the fluorescence polarization that occur when the substrate is cleaved by the enzyme.

| IC50 [nM] | Structure (SMILES) |
| --- | --- |
| 182 | Cc1ccc([C@H]2C[C@H]3CSC(N)=N[C@@]3(c3ccc(F)cc3F)CO2)cn1 (relative stereo) [Example 7, rel-(4aR,6R,8aS)-8a-(2,4-Difluorophenyl)-6-(6-methylpyridin-3-yl)-4,4a,5,6,8,8a-hexahydropyrano[3,4-d][1,3]thiazin-2-amine] |
| 37.9 | NC1=N[C@@]2(c3ccc(F)cc3F)CO[C@@H](c3cncc(F)c3)C[C@H]2CS1 [Example 29, (4aR,6R,8aS)-8a-(2,4-difluorophenyl)-6-(5-fluoropyridin-3-yl)-4,4a,5,6,8,8a-hexahydropyrano[3,4-d][1,3]thiazin-2-amine] |
